Experimental data from US8586020B2, “Poly(organophosphazene) composition for biomaterials” (Korea Institute of Science and Technology, priority 2011, dated 2013).

conditions: pH 7.4

Max. Gelling Temp. | Substance
38 °C | Poly[(isoleucineethylester)(aminomethoxy polyethyleneglycol550)(acrylate)phosphazene] [Example 9]
33 °C | Poly[(isoleucineethylester)(aminomethoxy polyethyleneglycol550)(aminoethylmethacrylate)phosphazene] [Example 2]
28 °C | Poly[(isoleucineethylester)(aminomethoxy polyethyleneglycol550)(aminoethylmethacrylate)phosphazene] [Example 4]
39 °C | Poly[(isoleucineethylester)(aminomethoxy polyethyleneglycol550)(aminoethylmethacrylate)phosphazene] [Example 5]
32 °C | Poly[(isoleucineethylester)(aminomethoxy polyethyleneglycol550)(cystineethylester)phosphazene] [Example 14]
38 °C | Poly[(isoleucineethylester)(aminomethoxy polyethyleneglycol550)(ethyl-2-(O-glycyl)lactate)(cystine ethyl ester)phosphazene] [Example 17]
35 °C | Poly[(isoleucineethylester)(aminomethoxy polyethyleneglycol550)(ethyl-2-(O-glycyl)lactate)(glycylcystineethylester) phosphazene] [Example 18]
33 °C | Poly[(isoleucineethylester)(aminomethoxy polyethyleneglycol550)(glycylglyeine)(glycylglycyltyramine)phosphazene] [Example 25]
37 °C | Poly[(isoleucineethylester)(aminomethoxy polyethyleneglycol550)(hydroxyethylmethacrylate)phosphazene] [Example 7]
48 °C | Poly[(isoleucineethylester)(aminomethoxy polyethyleneglycol750)(acrylate)phosphazene] [Example 11]
29 °C | Poly[(isoleueineethylester)(aminomethoxy polyethyleneglycol550)(glycylglyeine)(glyeylglycylcysteamine)phosphazene] [Example 23]
